Biological target: Cdc25B (Homo sapiens, UniProt P30305)
Experiment: Dialysis assay of the Cdc25B-shikonin complex (reversibility)
Conditions: 0.2 μM Cdc25B, 50 μM shikonin, dialysis for 2, 4, 6 and 24 h

Chains of the proteins cited; added tags and fusions are not shown. Lines headed by an entry give the natural chain unless they say otherwise; changes in a name come on top.
UniProt P30305: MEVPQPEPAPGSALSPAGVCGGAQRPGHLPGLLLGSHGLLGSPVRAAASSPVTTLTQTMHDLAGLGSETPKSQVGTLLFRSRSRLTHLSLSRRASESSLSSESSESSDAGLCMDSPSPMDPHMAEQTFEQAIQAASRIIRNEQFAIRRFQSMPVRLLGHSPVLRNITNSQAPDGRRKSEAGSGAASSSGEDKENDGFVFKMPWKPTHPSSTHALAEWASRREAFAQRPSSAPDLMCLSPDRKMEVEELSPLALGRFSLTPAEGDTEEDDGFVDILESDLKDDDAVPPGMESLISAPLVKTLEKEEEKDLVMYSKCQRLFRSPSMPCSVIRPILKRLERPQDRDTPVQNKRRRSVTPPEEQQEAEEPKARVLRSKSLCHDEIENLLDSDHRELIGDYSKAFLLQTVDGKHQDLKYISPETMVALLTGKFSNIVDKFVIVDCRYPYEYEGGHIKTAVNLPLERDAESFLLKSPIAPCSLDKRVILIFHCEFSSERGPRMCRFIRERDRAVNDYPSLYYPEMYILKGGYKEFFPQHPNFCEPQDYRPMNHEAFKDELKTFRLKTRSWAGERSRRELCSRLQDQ

**Q.** Which “Activity of Cdc25B after dialysis (reversibility of inhibition)” value does the source give for `CC(C)=CC[C@@H](O)C1=CC(=O)c2c(O)ccc(O)c2C1=O` [Shikonin] here?
**A.** not rescued
